Results as given in PubChem BioAssay AID1910 (Broad Institute, 2009).
The list shows a part of the results, in another mix than the full data. The source made the active and inactive calls.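 How the source made its calls: active means mean activation of at least 10% of the iron chelator positive control signal, with at least half of replicates also reaching 10%; inconclusive means mean and replicate majority disagree about reaching 10%; inactive means mean and most replicates under 10%.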

Experiment: HIF pathway transcriptional activators, primary screen, cell-based, U2OS HRE-luciferase, luminescence (AID 1910)
Conditions: U2OS HRE-luciferase reporter, active compounds read high, screened at 7.5 µM (by protocol), normalized: DMSO 0%, desferrioxamine 100%
For `O=[N+]([O-])c1ccc(Nc2ccc(Oc3ccc([N+](=O)[O-])cc3[N+](=O)[O-])cc2)c([N+](=O)[O-])c1`, the activation was inactive: -1.86%.
For `CCOC(=O)Nc1cccc([As](=O)(O)O)c1`, the activation was inactive: 0.084%.
In the case of `Cc1cc(SC(NC(=O)c2ccccc2)C(Cl)(Cl)Cl)nc(C(C)C)n1` (stereo unspecified), the activation is reported as inactive: -0.205%.
For `CCCCOc1ccc(C(=O)NCC2(N3CCCCC3)CCCCC2)cc1OC`, the activation was inactive: 0.463%.
For `CCOC(=O)Nc1ccc([As](=O)(O)O)c(O)c1`, the activation was inactive: -0.184%.
With `O=[N+]([O-])c1cc([N+](=O)[O-])c(-c2ccn[nH]2)s1` the activation was inactive: -0.0685%.
In the case of `CCN(CC)C(=S)SC(NC=O)C(Cl)(Cl)Cl` (stereo unspecified), the activation is reported as inactive: -0.206%.
For `CC(C)NC(=O)NP(=O)(Oc1ccccc1)Oc1ccccc1`, the activation was inactive: -0.142%.
In the case of `ClCCSc1nnc(-c2cccnc2)o1`, the activation is reported as inactive: 0.839%.
In the case of `CC(C)c1ccc(OP(=O)(Nc2ccccn2)Oc2ccccc2F)cc1` (stereo unspecified), the activation is reported as inactive: -0.46%.
With `CC(Cc1ccc(O)cc1)NCC(O)c1cc(O)cc(O)c1` (stereo unspecified) the activation was inactive: -0.444%.
In the case of `Cc1ccc(OP(=O)(Nc2ccc([N+](=O)[O-])cn2)Oc2ccc(C)cc2)cc1`, the activation is reported as inactive: 0.118%.
With `Cc1ccc2nc3c(c(C)c2c1)CC(C(Cl)Cl)S3` (stereo unspecified) the activation was inactive: 1.08%.
For `C[As](=O)(O)c1cccc(C(=O)O)c1`, the activation was inactive: 1.12%.
With `O=[As](O)(c1ccc(O)cc1)c1ccccc1O` the activation was inactive: 0.11%.
With `COc1ccc(N/C(=N/P(=O)(N2CCOCC2)N2CCOCC2)N2CCOCC2)cc1` the activation was inactive: -0.387%.
For `COc1cc(I)ccc1[As](=O)(O)O`, the activation was inactive: -0.311%.
In the case of `COc1ccc2nc(NP(=O)(c3ccccc3)c3ccccc3)sc2c1`, the activation is reported as inactive: -0.0927%.
In the case of `Cc1c2c(nc3ccccc13)SC(C(Cl)Cl)C2` (stereo unspecified), the activation is reported as inactive: 0.187%.
In the case of `Cc1cc(=O)[nH]c(N[N+](=O)[O-])n1`, the activation is reported as inactive: 0.00345%.
For `O=C(OC1CN2CCC1CC2)C12CC3CC(CC(C3)C1)C2` (stereo unspecified), the activation was inactive: 0.0869%.
